{
  "source": "patent US12162865B2",
  "about": "“Methods of treating cancer” (Epizyme, Inc., priority 2012, dated 2024)",
  "key": {"SU-DHL-6 cells": {"tested_on": "SU-DHL-6 cells", "conditions": "SU-DHL-6, EZH2 Y641N; 11 days"}, "[1]": {"tested_on": "WSU-DLCL2 EZH2 Y641F mutant xenograft", "conditions": "SCID mice, oral, 4 or 7 days; 5 minutes before or 3 hours after last dose"}, "[2]": {"tested_on": "H3K27Me3 in PBMCs, bone marrow and skin", "conditions": "100, 300, or 1000 mg/kg oral, 28 days"}, "RL cells": {"tested_on": "RL cells", "conditions": "EZH2 Y641N, 11 days"}, "Toledo cells": {"tested_on": "Toledo cells", "conditions": "EZH2 Wild Type, 11 days"}, "Karpas-422 cells": {"tested_on": "Karpas-422 cells", "conditions": "Karpas-422, EZH2 Y641N; 11 days"}, "OCI-LY19 cells": {"tested_on": "OCI-LY19 cells", "conditions": "OCI-LY19, EZH2 Wild Type; 11 days; n = 9"}, "Farage cells": {"tested_on": "Farage cells", "conditions": "EZH2 Wild Type, 11 days"}, "SU-DHL-10 cells": {"tested_on": "SU-DHL-10 cells", "conditions": "SU-DHL-10, EZH2 Y641F; 11 days"}, "[3]": {"tested_on": "subcutaneous G401 xenografts"}, "Pfeiffer cells": {"tested_on": "Pfeiffer cells", "conditions": "EZH2 A677G, 11 days, mean n = 2"}, "DOHH-2 cells": {"tested_on": "DOHH-2 cells", "conditions": "DOHH-2, EZH2 Wild Type; 11 days"}, "WSU-DLCL2 cells": {"tested_on": "WSU-DLCL2 cells", "conditions": "WSU-DLCL2, EZH2 Y641F; 11 days; mean n = 15"}},
  "note": "Read-outs that look alike come from different tables or passages of the source.",
  "data": [
    {"smiles": "CCN(c1cc(-c2ccc(CN3CCOCC3)cc2)cc(C(=O)NCc2c(C)cc(C)[nH]c2=O)c1C)C1CCOCC1", "note": "[Compound A, N-((4,6-dimethyl-2-oxo-1,2-dihydropyridin-3-yl)methyl)-5-(ethyl (tetrahydro-2H-pyran-4-yl)amino)-4-methyl-4′-(morpholinomethyl)-[1,1′-biphenyl]-3-carboxamide]", "values": [
      {"measurement": "LCC (lowest cytotoxic concentration)", "setting": "SU-DHL-6 cells", "value": 0.21, "unit": "µmol/L"},
      {"measurement": "plasma levels (systemic exposure)", "setting": "[1]", "value": "dose dependent increase in exposure"},
      {"measurement": "target inhibition in PBMCs and bone marrow (ELISA)", "setting": "[2]", "value": "Dose-dependent target inhibition"},
      {"measurement": "LCC (lowest cytotoxic concentration)", "setting": "RL cells", "value": ">25", "unit": "µmol/L"},
      {"measurement": "LCC (lowest cytotoxic concentration)", "setting": "Toledo cells", "value": ">10", "unit": "µmol/L"},
      {"measurement": "LCC (lowest cytotoxic concentration)", "setting": "Karpas-422 cells", "value": 0.12, "unit": "µmol/L"},
      {"measurement": "LCC (lowest cytotoxic concentration)", "setting": "OCI-LY19 cells", "value": "10 to 25", "unit": "µmol/L"},
      {"measurement": "LCC (lowest cytotoxic concentration)", "setting": "Farage cells", "value": ">10", "unit": "µmol/L"},
      {"measurement": "LCC (lowest cytotoxic concentration)", "setting": "SU-DHL-10 cells", "value": 0.14, "unit": "µmol/L"},
      {"measurement": "antitumor effect during the administration period", "setting": "[3]; 125 mg/kg", "value": "tumor stasis"},
      {"measurement": "antitumor effect during the administration period", "setting": "[3]; 133 mg/kg", "value": "stasis"},
      {"measurement": "LCC (lowest cytotoxic concentration)", "setting": "Pfeiffer cells", "value": 0.0005, "unit": "µmol/L"},
      {"measurement": "LCC (lowest cytotoxic concentration)", "setting": "DOHH-2 cells", "value": ">10", "unit": "µmol/L"},
      {"measurement": "LCC (lowest cytotoxic concentration)", "setting": "WSU-DLCL2 cells", "value": 0.17, "unit": "µmol/L"}
    ]}
  ]
}
